Laboratory results: US20100112617A1, “Evaluating RTK Target Drugs” (Apocell, Inc, priority 2007, published 2010)

Target: T1, EGFR (Homo sapiens, UniProt P00533)
T1 construct: host or cells: HT-29 colon cancer cells
Test: pEGFR and tEGFR levels in EGF-stimulated HT-29 colon cancer cells by laser scanning cytometry
Format: cell-based
Settings: HT-29 cells, 0% FCS, 10 mM, EGF 100 ng/ml for 5 min
Description: We sought to test RTK response to RTKI's and thus measured both phospho-RTK and total RTK using a known RTKI challenge reagent. AEE788 (NOVARTIS®) is an oral multiple-receptor tyrosine kinase inhibitor of EGFR, human epidermal growth factor receptor 2 (HER-2), and vascular endothelial growth factor receptor (VEGFR). Thus, we measured EGFR response to AEE788 using antibody quantitation of the two parameters. HT-29 colon cancer cells were treated with increasing doses of AEE788, (0, 4, 20, 100, and 1000 nM) for 4 hours in serum-free media followed by EGF stimulation at 100 ng/ml for 5 minutes. Cells were then fixed and stained with anti-phospho-EGFR (P-EGFR-Y1173) antibody followed by a secondary antibody conjugated with a fluorescent probe. The mean fluorescence index (MFI) of pEGFR was quantified by laser scanning cytometry (LSC) […] and the results are shown in Table 2.

pEGFR fold change in level: 0.60 fold | pEGFR/tEGFR fold change in level: 0.29 fold | tEGFR fold change in level: 2.12 fold
SMILES: COc1cc2ncnc(Nc3cccc(Cl)c3)c2cc1OC [AG1478]
